{"sequences": {"note": "Protein sequences, listed by entry. Tags and fused reporters are not part of them. Lines headed by an entry give the natural chain unless they say otherwise; changes in a name come on top.", "UniProt Q9UKV0": "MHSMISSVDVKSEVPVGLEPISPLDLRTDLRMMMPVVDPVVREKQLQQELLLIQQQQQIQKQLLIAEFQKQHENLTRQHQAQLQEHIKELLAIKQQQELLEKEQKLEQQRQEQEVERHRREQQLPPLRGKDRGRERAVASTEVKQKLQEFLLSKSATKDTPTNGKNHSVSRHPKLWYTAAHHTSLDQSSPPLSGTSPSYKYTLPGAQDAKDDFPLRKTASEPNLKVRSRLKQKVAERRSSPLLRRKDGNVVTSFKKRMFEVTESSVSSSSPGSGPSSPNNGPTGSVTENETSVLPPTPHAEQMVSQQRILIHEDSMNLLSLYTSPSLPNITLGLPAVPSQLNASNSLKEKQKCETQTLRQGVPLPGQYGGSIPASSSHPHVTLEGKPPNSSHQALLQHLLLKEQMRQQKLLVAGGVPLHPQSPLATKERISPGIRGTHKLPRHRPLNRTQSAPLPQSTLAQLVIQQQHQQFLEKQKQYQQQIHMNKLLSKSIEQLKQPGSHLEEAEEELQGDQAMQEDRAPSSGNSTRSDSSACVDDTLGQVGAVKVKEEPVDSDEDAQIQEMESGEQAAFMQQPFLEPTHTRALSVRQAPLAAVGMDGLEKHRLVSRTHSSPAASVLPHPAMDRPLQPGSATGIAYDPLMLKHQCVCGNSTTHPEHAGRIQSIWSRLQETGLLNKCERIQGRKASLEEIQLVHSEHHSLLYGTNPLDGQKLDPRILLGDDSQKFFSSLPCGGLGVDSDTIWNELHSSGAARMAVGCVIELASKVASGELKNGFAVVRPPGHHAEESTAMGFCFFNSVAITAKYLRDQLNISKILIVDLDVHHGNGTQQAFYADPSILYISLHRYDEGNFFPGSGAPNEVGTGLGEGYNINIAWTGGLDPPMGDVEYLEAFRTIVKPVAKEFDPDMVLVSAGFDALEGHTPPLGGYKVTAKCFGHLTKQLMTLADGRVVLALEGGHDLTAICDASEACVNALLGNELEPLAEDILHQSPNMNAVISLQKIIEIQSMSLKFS", "UniProt Q9UQL6": "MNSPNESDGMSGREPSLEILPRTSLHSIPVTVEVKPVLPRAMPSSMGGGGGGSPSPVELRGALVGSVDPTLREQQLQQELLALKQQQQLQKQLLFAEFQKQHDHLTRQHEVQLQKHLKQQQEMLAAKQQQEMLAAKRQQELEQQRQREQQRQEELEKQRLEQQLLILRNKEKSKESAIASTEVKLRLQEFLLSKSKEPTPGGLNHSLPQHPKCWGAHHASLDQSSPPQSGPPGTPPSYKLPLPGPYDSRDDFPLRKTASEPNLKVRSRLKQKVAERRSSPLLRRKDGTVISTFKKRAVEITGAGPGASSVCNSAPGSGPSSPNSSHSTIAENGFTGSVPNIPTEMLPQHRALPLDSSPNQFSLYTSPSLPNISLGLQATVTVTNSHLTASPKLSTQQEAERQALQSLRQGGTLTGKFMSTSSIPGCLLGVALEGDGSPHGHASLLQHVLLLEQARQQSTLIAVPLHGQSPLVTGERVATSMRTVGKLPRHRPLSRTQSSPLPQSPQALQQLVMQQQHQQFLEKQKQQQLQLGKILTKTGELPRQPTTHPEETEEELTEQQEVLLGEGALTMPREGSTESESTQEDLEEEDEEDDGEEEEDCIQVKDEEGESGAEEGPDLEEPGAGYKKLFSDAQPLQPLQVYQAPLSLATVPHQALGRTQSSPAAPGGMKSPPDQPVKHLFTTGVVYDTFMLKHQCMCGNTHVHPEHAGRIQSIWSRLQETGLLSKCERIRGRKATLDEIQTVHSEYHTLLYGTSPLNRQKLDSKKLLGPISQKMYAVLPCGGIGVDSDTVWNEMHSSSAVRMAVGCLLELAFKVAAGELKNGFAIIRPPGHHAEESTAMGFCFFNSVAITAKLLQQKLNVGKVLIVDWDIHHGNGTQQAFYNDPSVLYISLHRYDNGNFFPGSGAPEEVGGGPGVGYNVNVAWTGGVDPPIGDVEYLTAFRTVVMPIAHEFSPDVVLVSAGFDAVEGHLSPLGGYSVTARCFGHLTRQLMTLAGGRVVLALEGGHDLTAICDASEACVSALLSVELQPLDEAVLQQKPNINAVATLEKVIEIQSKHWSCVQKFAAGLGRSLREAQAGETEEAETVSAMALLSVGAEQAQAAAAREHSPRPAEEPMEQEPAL"}, "source": "ChEMBL document CHEMBL4373747", "about": "(ACS Med Chem Lett, 2020)", "key": {"Histone deacetylase 9": {"biological_target": "Histone deacetylase 9 (Homo sapiens, UniProt Q9UKV0)", "assay": "Inhibition of recombinant human HDAC9 (604-1066 residues) expressed in baculovirus infected Sf9 cells using FAM-RHKK-TFAc as substrate incubated for 3 hrs by electrophoretic mobility shift assay"}, "Histone deacetylase 5": {"biological_target": "Histone deacetylase 5 (Homo sapiens, UniProt Q9UQL6)", "assay": "Inhibition of recombinant full length human HDAC5 expressed in baculovirus infected Sf9 cells using FAM-RHKK-TFAc as substrate incubated for 3 hrs by electrophoretic mobility shift assay"}}, "note": "pIC50: −log10 of the molar value.", "data": [{"smiles": "CC(/C=C/C(=O)NO)=C\\[C@@H](C)C(=O)c1ccc(N(C)C)cc1", "note": "[TRICHOSTATIN]", "values": [{"measurement": "pIC50", "setting": "Histone deacetylase 9", "result": "< 6.00"}, {"measurement": "pIC50", "setting": "Histone deacetylase 5", "result": 6.11}]}]}
